Assay results reported in article PMC9748978 (RSC Advances, 2022).

Legend:
Solubility in water = assay type: physicochemical; settings: 25 °C, 24 h
[1] = Accumulation in the skin after 24 h penetration; assay type: in vitro ADME, pig; settings: after 24 h of penetration from solution, porcine skin
Outline: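 Franz diffusion cells with porcine abdominal skin, PBS (pH 7.4) acceptor at 37.0 ± 0.5 °C. After 24 h penetration the skin was removed, rinsed in PBS pH 7.4, dried at room temperature, weighed, cut to the 1 cm2 diffusion area and minced. It was then extracted in methanol for 24 h at 4 °C, homogenized 3 min and centrifuged at 3500 rpm for 5 min. Supernatant was assayed by HPLC, expressed as μg IBU per g skin.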

Solubility in water (Solubility in water): 9.801 ± 0.067 g dm^−3
Solubility in water (as ibuprofen) (Solubility in water): 4.775 ± 0.046 g IBU per dm^3
accumulation in the skin [1]: 461.56 ± 29.77 μg IBU per g skin
Substance: L-histidine propyl ester bis(ibuprofenate) [[HisOPr][IBU]]
